Structures are written as SMILES.

As usually defined, the Ki is the dissociation constant of the complex between target and ligand, obtained from inhibition or displacement.

The target in this test is T1, Alpha-1A adrenergic receptor (Homo sapiens, UniProt P35348).
T1 sequence (P35348 whole entry): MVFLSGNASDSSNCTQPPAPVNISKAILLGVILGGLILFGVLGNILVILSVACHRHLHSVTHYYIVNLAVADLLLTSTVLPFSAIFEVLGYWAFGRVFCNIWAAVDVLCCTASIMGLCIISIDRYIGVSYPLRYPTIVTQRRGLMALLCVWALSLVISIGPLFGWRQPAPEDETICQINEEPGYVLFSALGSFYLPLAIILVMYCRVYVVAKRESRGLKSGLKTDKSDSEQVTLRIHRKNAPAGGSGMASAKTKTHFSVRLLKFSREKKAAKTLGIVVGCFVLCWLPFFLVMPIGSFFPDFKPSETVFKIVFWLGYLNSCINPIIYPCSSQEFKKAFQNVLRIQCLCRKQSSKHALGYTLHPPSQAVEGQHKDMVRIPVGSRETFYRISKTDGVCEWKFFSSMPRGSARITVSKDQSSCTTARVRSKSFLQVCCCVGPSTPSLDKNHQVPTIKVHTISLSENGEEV
The experiment in a line: Displacement of [3H]prazosin from recombinant human alpha1a adrenergic receptor expressed in CHO cell membranes after 30 mins by TopCount liquid scintillation counting method. The procedure, abridged: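 Membranes from CHO cells stably expressing each human α1 subtype (70 µg protein), incubated in 50 mM Tris pH 7.4 with 0.1–0.4 nM [3H]prazosin and competitor (1 pM–1 µM) for 30 min at 25 °C. Nonspecific binding defined with 10 µM tamsulosin. Filtration and scintillation counting. Ki by Cheng–Prusoff; pKi mean of 2–3 experiments in duplicate.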
A general note: In a radioligand displacement assay an active substance lowers the binding of a labelled ligand.

As to `COc1ccccc1N1CCN(CCN2C(=O)CC3(CCCC3)CC2=O)CC1` [BMY-7378], the Ki is 389 nM.

These data come from ChEMBL document CHEMBL3877267, “Synthesis, biological evaluation and molecular modeling of 1-oxa-4-thiaspiro- and 1,4-dithiaspiro[4.5]decane derivatives as potent and selective 5-HT1A receptor agonists” (Eur J Med Chem, 2017).
